In patent EP4837574A1, “USE OF DNJ OR DERIVATIVE THEREOF IN PREPARING ANTI-SENESCENCE DRUG” (dated 2026):

What was measured:
[1] = test system: rat cardiomyocytes (H9c2 cells); experiment: SA-β-Gal staining, H2O2-induced senescence, pre-administration (Example 6); settings: pre-administration 24 hours, then 400 µM H2O2 48 hours; FIG. 14
Procedure: (§1) The workflow for SA-β-Gal staining of the cells is as follows: For the cells cultured in a 6-well plate, a cell culture solution was sucked away, the cells were washed 1 time with PBS, and 1 mL of an SA-β-Gal staining fixative was added for fixation at room temperature for 15 minutes. For other types of culture plates, the dosages of the fixative and subsequent solutions were used in operation with reference to this ratio. The cell fixative was sucked away, and the cells were washed 3 times with PBS, for 3 minutes each time. PBS was sucked away, and 1 mL of a staining working solution was added to each well. A method for formulating the staining working solution is as follows: A β-galactosidase staining solution A (10 µL), a β-galactosidase staining solution B (10 µL), a β-galactosidase staining solution C (930 µL), and an X-Gal solution (50 µL) were used. The cells were incubated overnight at 37°C, and the 6-well plate was sealed with a parafilm or a plastic wrap to prevent evaporation. Photographing was performed for record using a 20× objective under a microfluidic live cell real-time analysis system (Thermo), cell counting was performed using ImageJ software (National Institutes of Health, v 1.8.0), and ANOVA data analysis of multiple groups (mean ± SD) was performed using Graphpad Prism software (GraphPad Software, v 9.0.0).
Culture conditions for rat cardiomyocytes (H9c2 cells) are as follows: The cells were cultured in a high-glucose DMEM culture medium containing 10% FBS and passaged and seeded when cultured to a density of 70% to 80% in a culture dish. The cells were washed 1 time with PBS, 0.25% trypsin was added for digestion for 2-3 minutes, and a high-glucose DMEM culture medium containing 10% FBS was added to terminate the digestion. The cells were pipetted to be detached, collected into a 15 mL centrifuge tube, and centrifuged at 1,000 rpm for 5 minutes. The supernatant was discarded, a new ECM culture medium was added, and the cells were pipetted uniformly, seeded into a 12-well or 24-well plate (at a density of 70% to 80%), and cultured in a 5% CO2 incubator at 37°C. After cell adherence, the next operation was performed.
The anti-aging activity of drugs was detected in the H9c2 cells. In the H9c2 cells, stimulation was performed with 400 µM H2O2 for 48 hours for modeling. […] The pharmacological activity of DNJ or its derivatives DNJ-1, DNJ-3a, DNJ-3b, and DNJ-5a was detected in the method of pre-administration treatment for 24 hours.

[2] = test system: human iPSC-derived mesenchymal stem cells (iPSC-MSC); experiment: SA-β-Gal staining, H2O2-induced senescence, pre-administration (Example 7); settings: pre-administration 24 hours; 40 µM H2O2 2 hours, then new medium 24 hours; FIG. 15
Procedure: as §1
Culture conditions for human iPSC-derived mesenchymal stem cells (iPSC-MSC) are as follows: The cells were cultured in a MesenCult-ACF Plus Medium (STEMCELL, Cat#05446) and passaged and seeded when cultured to a density of 70% to 80% in a culture dish. After the cells were washed 1 time with DPBS (Gibco), an ACF Enzymatic Dissociation Solution (STEMCELL, Cat#05426) was added for digestion for 2-3 minutes, and then an ACF Enzyme Inhibition Solution (STEMCELL, Cat#05426) was added to terminate the digestion. The cells were pipetted to be detached, collected into a 15 mL centrifuge tube, and centrifuged at 300 G for 8 minutes. The supernatant was discarded, a new MesenCult-ACF Plus Medium was added, and the cells were pipetted uniformly, seeded into a 12-well or 24-well plate (at a density of 70% to 80%), and cultured in a 5% CO2 incubator at 37°C. After cell adherence, the next operation was performed.
The anti-aging activity of drugs was detected in iPSC-MSC. In iPSC-MSC, stimulation was performed with 40 µM H2O2 for 2 hours, followed by replacement with a new culture medium for continued culture for 24 hours to construct a cell senescence model. Compared with a control group, a significant increase in the number of SA-β-Gal staining-positive cells in an H2O2 group confirms successful establishment of an iPSC-MSC senescence model. The pharmacological activity of DNJ or its derivatives was detected in the method of pre-administration treatment for 24 hours.

SASP factors = experiment: qRT-PCR of SASP factor mRNA, replicative senescence of Huvec cells by continuous passage (Example 9); settings: DNJ 24 hours; senescent cells of the 6th, 9th, and 12th generations; compared with a control group; FIG. 17
Procedure: The anti-aging activity of drugs was detected in a replicative senescence model of human umbilical vein endothelial cells induced by continuous passage. A basic method refers to Example 1, with differences in the modeling method as follows: cell passage was performed when the cells grew to a density of approximately 80%, and the cells of the 4th, 6th, 9th, and 12th generations were used for experiments. Compared with the cells of the 4th generation, the cells of the 6th, 9th, and 12th generations gradually became senescent.
Experimental operation and grouping: Passage operation was performed after the cells grew to a density of 70% to 80%. When passaged to the 4th, 6th, 9th, and 12th generations, the cells were divided into a control group and an administration group, respectively. The control group was cultured in a normal culture medium, and the administration group was added into a culture medium containing 30 µM DNJ for culture. After 24 hours, the cells were subjected to SA-β-Gal staining operation.
The activity of drugs to inhibit a senescence-associated inflammatory phenotype was detected in a stress-induced senescence model of human umbilical vein endothelial cells induced by H2O2. […]

Compound: OC[C@H]1NC[C@H](O)[C@@H](O)[C@@H]1O
- number of SA-β-Gal staining-positive H9c2 cells [1]: reduce
- number of SA-β-Gal staining-positive iPSC-MSC cells [2]: reduce
- increase in the mRNA expression of SASP factors (SASP factors): significantly inhibited
